According to PMC4458377 (Biochemistry, 2014):

Molecular target: T1, BAZ2B bromodomain (Homo sapiens, UniProt Q9UIF8)
T1 sequence (Q9UIF8 1868-1972 isoform Q9UIF8-4): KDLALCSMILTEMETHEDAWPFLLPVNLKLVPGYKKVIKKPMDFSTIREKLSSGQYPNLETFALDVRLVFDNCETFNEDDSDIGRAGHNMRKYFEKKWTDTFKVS
Assay: ITC of H3K14ac peptides binding to BAZ2B bromodomain

Q: For `CC(=O)NCCCC[C@H](NC(=O)CNC(=O)CNC(=O)[C@@H](NC(=O)[C@H](CO)NC(C)=O)[C@@H](C)O)C(=O)N[C@@H](C)C(=O)N1CCC[C@H]1C(=O)N[C@@H](CCCNC(=N)N)C(N)=O` [Peptide 5], which Kd is on record?
A: 52.4 ± 2.4 µM
